Patent US20150141324A1 (priority 2011, published 2015)

By UniProt entry, the sequences of proteins in these tests, tags left out. Residues count along the entry.
UniProt P09958, 108-794: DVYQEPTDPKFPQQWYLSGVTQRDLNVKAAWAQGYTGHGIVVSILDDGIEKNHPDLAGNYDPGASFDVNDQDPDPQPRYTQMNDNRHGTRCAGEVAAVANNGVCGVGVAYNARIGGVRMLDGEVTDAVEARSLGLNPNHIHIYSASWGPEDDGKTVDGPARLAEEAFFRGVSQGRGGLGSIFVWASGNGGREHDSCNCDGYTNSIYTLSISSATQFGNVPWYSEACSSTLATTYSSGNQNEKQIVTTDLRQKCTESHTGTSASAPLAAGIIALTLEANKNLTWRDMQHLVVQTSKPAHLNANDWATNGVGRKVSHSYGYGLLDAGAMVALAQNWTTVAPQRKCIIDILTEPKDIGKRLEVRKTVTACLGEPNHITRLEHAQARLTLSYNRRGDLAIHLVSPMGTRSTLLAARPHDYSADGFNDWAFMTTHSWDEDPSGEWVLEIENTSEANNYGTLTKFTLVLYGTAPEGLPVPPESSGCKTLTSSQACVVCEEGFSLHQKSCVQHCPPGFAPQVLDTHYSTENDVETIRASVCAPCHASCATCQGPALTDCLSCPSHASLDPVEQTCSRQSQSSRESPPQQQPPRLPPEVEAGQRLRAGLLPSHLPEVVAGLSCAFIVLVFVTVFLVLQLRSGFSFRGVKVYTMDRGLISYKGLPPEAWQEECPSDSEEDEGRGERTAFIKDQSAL

Biological target: T1, furin (Homo sapiens, UniProt P09958)
T1 construct: endogenous in cells; host or cells: HEK293
Type: cell-based

In the case of `C[C@H](NC(=O)[C@H](CCCNC(=N)N)NC(=O)CCCCCCCN)C(=O)N[C@@H](CCCNC(=N)N)C(=O)N[C@@H](CCCNC(=N)N)C(=O)N[C@@H](CCCNC(=N)N)C(=O)N[C@@H](CCCCN)C(=O)N[C@@H](CCCCN)C(=O)N[C@@H](CCCNC(=N)N)C(=O)N[C@H](C(N)=O)[C@@H](C)O` [Aoc-RxxT], the “potency against furin in cell fusion inhibition, compared to RxxT control peptide” value is reported as “increased potency”.
